Compound activity from PubChem.
Rows were chosen to be rich in hits. Some 16% of all compounds tested hit in one or more screens of this group.
miR-21 reporter: raises the signal of a miR-21 reporter; Potency, µM (doses to about 38.3 µM), inactives show top-dose reporter change, positive = more light; HeLa miR-21 FLuc reporter, luciferase, 48 h; AID 2288; 340,000 tested, under 10 active; active = well fitted rising curve with a large enough effect; inconclusive = small, poorly fitted or top-dose-only effect; inactive = no such curve, though single readings can be large or run the other way;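 further: % of control where 0% means no effect; miR-21 action dims this reporter so a rising signal means less miR-21 action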
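Luminescence from a firefly luciferase reporter carrying a miR-21 binding site downstream, stably expressed under a CMV promoter in HeLa cells that make miR-21 endogenously, reports miRNA modulation after 48 h compound exposure up to approximately 40uM final.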
DT40 TDP1 CPT: DT40-hTDP1 cell growth loss with CPT | chicken DT40 Tdp1-/-;hTDP1 cells + 20 nM CPT, ATP luminescence, 48 h | Potency, µM (top dose mostly 46.2 µM), without a hit: at the top dose activity change, negative = growth inhibition, hits mostly inhibitors | actives 12% (n = 420,000); note: potency is the fitted concentration of half-maximal effect; % is set by controls: 0 for no effect and ±100 for the full control effect; nearly all actives have a fitted effect of over 55% in size
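Chicken DT40 Tdp1-/- cells complemented with human TDP1, 400 cells/well, exposed to compounds plus 20 nM camptothecin for at least 48 h at 37 C; viability read as ATP content by CellTiter-Glo luminescence.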
TDP1 inh: blocks human tyrosyl-DNA phosphodiesterase 1 | actives 0.28% (n = 350,000) | AID 485290 | Potency, µM (titrated, usually from 130 µM), for the others: top-dose activity change, negative = inhibition, usual class: inhibitors | recombinant TDP1, AlphaScreen DNA substrate cleavage; note: potency is the fitted concentration of half-maximal effect; % is set by controls: 0 for no effect and ±100 for the full control effect; nearly all actives have a fitted effect of over 40% in size
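E. coli-derived human Tdp1, 1 nM final. Cpd preinc 15 min RT; substrate 15 nM final, 5 min RT; AS bead mix 10 ug/ml final, 10 min RT. Signal loss = tyrosine-FITC cleavage. No-enzyme wells = max signal.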
uPA generation: inhibitors of cell surface uPA generation; Potency, µM (titrated, usually from 38.3 µM), for the others: at the top dose activity change, negative = inhibition, most hits filed as inhibitors; cell surface uPA generation assay, qHTS; actives 0.31% (n = 330,000); AID 540303; active = well fitted inhibition curve with a large enough effect; inconclusive = small, poorly fitted or top-dose-only effect; inactive = no such curve, though single readings can be large or run the other way; tested in mouse RAW 264.7 cells; note: potency is the fitted concentration of half-maximal effect; % is set by controls: 0 for no effect and ±100 for the full control effect; nearly all actives have a fitted effect of over 55% in size
DT40 TDP1 no CPT: qHTS for Inhibitors of human tyrosyl-DNA phosphodiesterase 1 (TDP1): qHTS in cells in absence of CPT | DT40 Tdp1-/- hTDP1 cells, no CPT, ATP luminescence, 48 h | Potency, µM (doses to about 46.2 µM), for inactives: at the highest dose activity change, negative = growth inhibition, actives largely listed as inhibitors | actives 15% (n = 420,000) | AID 686978, 2013; note: potency is the fitted concentration of half-maximal effect; % is set by controls: 0 for no effect and ±100 for the full control effect; nearly all actives have a fitted effect of over 55% in size
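Chicken DT40 Tdp1-/- cells stably complemented with human TDP1 were seeded at 400 cells/well with DMSO in place of 20 nM camptothecin. After compound pinning, cells grew at least 48 hr at 37 °C; viability read by CellTiter-Glo luminescence.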
Starred values were filed as active, the others as inactive; ? = inconclusive; . = not tested or not shown; [ ] = another dose, or the depositor's remark. Unless noted, calls come from the whole dose curve; as a rule, active = well fitted curve in the direction sought with a large enough effect; inconclusive = small, poorly fitted or top-dose-only effect, or another doubt; inactive = no such curve, though single readings can be large; an effect the other way counts as inactive or inconclusive.

Screens by letter: A = miR-21 reporter; B = DT40 TDP1 CPT; C = TDP1 inh; D = uPA generation; E = DT40 TDP1 no CPT
CCn1cc(/C=C/C(=O)Nc2c(C)nn(Cc3ccccc3)c2C)cn1
  A: 4%	B: ?	C: 3%	D: 0%	E: 9.2µM*
Cc1nn(Cc2ccc(Cl)cc2Cl)c(C)c1NC(=O)NC12CC3CC(CC(C3)C1)C2
  A: 12%	B: 21µM*	C: 1%	D: 7%	E: 18µM*
Cc1nn(Cc2ccccc2Cl)c(C)c1NC(=O)/C=C/c1cnn(C)c1
  A: -1%	B: -25%	C: 2%	D: .	E: ?
Cc1nn(Cc2ccccc2)c(Cl)c1C(=O)OCC(=O)NC(=O)NC12CC3CC(CC(C3)C1)C2
  A: 0%	B: ?	C: 8%	D: -3%	E: ?
CCN(CC(=O)Nc1ccccc1C(F)(F)F)C(=O)Cn1c(=O)cnc2ccccc21
  A: .	B: -11%	C: 0%	D: 2%	E: -9%
Cc1cccc(NC(=O)CSc2nc(=O)n(CCCN3CCOCC3)c3c2CCCC3)c1C
  A: .	B: -25%	C: .	D: .	E: 1%
O=C(Nc1nc2ccccc2n1CCOc1ccc(Cl)cc1)c1ccco1
  A: 22%	B: 26µM*	C: 6%	D: ?	E: 18µM*
O=C(Nc1nc2ccccc2n1CCOc1ccccc1)c1ccco1
  A: 0%	B: 15µM*	C: 13%	D: -10%	E: 15µM*
O=C(Nc1nc2ccccc2n1Cc1ccc(Cl)cc1)c1ccco1
  A: -1%	B: ?	C: 4%	D: -10%	E: -27%
Cc1cccc(OCCn2c(-c3ccco3)nc3ccccc32)c1
  A: -33%	B: ?	C: 6%	D: -5%	E: ?

Later entries:
Screens by letter: A = miR-21 reporter; B = DT40 TDP1 CPT; C = TDP1 inh; D = uPA generation; E = DT40 TDP1 no CPT
Cc1cccc(OCCn2c(NC(=O)c3ccco3)nc3ccccc32)c1
  A: 11%	B: 26µM*	C: 9%	D: -6%	E: ?
CCOc1cc(C(=O)N2CC(=O)Nc3ccc(C)cc3C2c2ccccc2)cc(OCC)c1OCC (centres undefined)
  A: -1%	B: 18µM*	C: 3%	D: .	E: 21µM*
Cc1ccc2c(c1)C(c1ccccc1)N(C(=O)c1ccccc1F)CC(=O)N2 (centres undefined)
  A: 22%	B: 18µM*	C: -6%	D: .	E: ?
Cc1c(Cl)cccc1NC(=S)NC(=O)c1ccccc1
  A: .	B: -15%	C: .	D: .	E: ?
O=P(c1ccccc1)(c1ccccc1)c1nc(-c2ccccc2)oc1NCc1ccccc1
  A: 3%	B: ?	C: 7%	D: -9%	E: 18µM*
Cc1c(Cc2ccc3c(c2)OCO3)sc(NC(=O)C2CC2)c1C(N)=O
  A: -1%	B: 10µM*	C: .	D: -10%	E: 10µM*
Cc1nc(NC(=O)C2CCCC2)sc1Cc1ccc2c(c1)OCO2
  A: -78%	B: ?	C: 5%	D: -8%	E: ?
Cc1nc(NC(=O)C23CC4CC(CC(C4)C2)C3)sc1Cc1ccc2c(c1)OCO2
  A: -25%	B: ?	C: 8%	D: -5%	E: 21µM*
O=C(OCC1COc2ccccc2O1)c1ccccc1F (centres undefined)
  A: -19%	B: 4%	C: -8%	D: -3%	E: 0%
Cn1c(SCC(=O)Nc2ccc(F)cc2)nc2c([nH]c3ccccc32)c1=O
  A: 3%	B: 18µM*	C: 3%	D: 6%	E: ?

Next results
Screens by letter: A = miR-21 reporter; B = DT40 TDP1 CPT; C = TDP1 inh; D = uPA generation; E = DT40 TDP1 no CPT
Cc1ccc(NC(=O)CSc2nc3c([nH]c4ccccc43)c(=O)n2C)cc1
  A: 6%	B: 13µM*	C: 1%	D: -11%	E: 8.2µM*
Cn1c(SCC(=O)Nc2cccc(F)c2)nc2c([nH]c3ccccc32)c1=O
  A: 1%	B: -4%	C: 4%	D: 1%	E: -23%
Cc1ccc(C)c(CSc2nc3c([nH]c4ccccc43)c(=O)n2C)c1
  A: 0%	B: 6.5µM*	C: 0%	D: .	E: 3.3µM*
CCOc1ccc(NC(=O)CSc2nc3c([nH]c4ccccc43)c(=O)n2C)cc1
  A: 1%	B: -4%	C: -1%	D: 9%	E: -13%
CCOC(=O)CCCNC(=O)CCCNC(=O)C(c1ccccc1)c1ccccc1
  A: 2%	B: -1%	C: 6%	D: .	E: 5%
Cc1ccccc1NC(=O)C(C)O/N=C/c1cccc([N+](=O)[O-])c1 (centres undefined)
  A: -6%	B: ?	C: 1%	D: 1%	E: ?
COC(=O)c1ccc(Cl)c(NC(=O)NC23CC4CC(CC(C4)C2)C3)c1
  A: -1%	B: 23µM*	C: 6%	D: -8%	E: 18µM*
COC(=O)c1cccc(NC(=O)NC23CC4CC(CC(C4)C2)C3)c1
  A: 0%	B: ?	C: -2%	D: -8%	E: ?
COC(=O)c1cccc(S(=O)(=O)N2CCC(NC(=O)NC34CC5CC(CC(C5)C3)C4)CC2)c1
  A: 0%	B: 23µM*	C: 4%	D: 5%	E: 21µM*
Cc1cc(NC(=O)C(C)SCC(=O)Nc2cc(C(F)(F)F)ccc2N2CCCCC2)no1 (centres undefined)
  A: .	B: ?	C: .	D: 14%	E: ?

2 entries picked at random from those above, as already listed:
Screens by letter: A = miR-21 reporter; B = DT40 TDP1 CPT; C = TDP1 inh; D = uPA generation; E = DT40 TDP1 no CPT
COC(=O)c1ccc(Cl)c(NC(=O)NC23CC4CC(CC(C4)C2)C3)c1
  A: -1%	B: 23µM*	C: 6%	D: -8%	E: 18µM*
Cc1ccc(C)c(CSc2nc3c([nH]c4ccccc43)c(=O)n2C)c1
  A: 0%	B: 6.5µM*	C: 0%	D: .	E: 3.3µM*

(cont.)
Screens by letter: A = miR-21 reporter; B = DT40 TDP1 CPT; C = TDP1 inh; D = uPA generation; E = DT40 TDP1 no CPT
CCOC(=O)c1cnc2c(C)cc(C)cc2c1NCCN1CCOCC1
  A: 0%	B: 18µM*	C: 2%[12.3 µM]	D: .	E: 16µM*
CCOC(=O)c1cnc2c(C)cc(C)cc2c1Nc1cccc(C(=O)O)c1
  A: -19%	B: 13µM*	C: -6%[12.3 µM]	D: .	E: 15µM*
CCOC(=O)c1cnc2c(C)cc(C)cc2c1Nc1ccc(S(=O)(=O)Nc2ncccn2)cc1
  A: -2%	B: -10%	C: 0%	D: -3%	E: -3%
COc1cc(/C=C2/C(=N)N3C(=NC2=O)SN=C3S(C)(=O)=O)ccc1OS(=O)(=O)c1ccccc1
  A: -14%	B: .	C: -9%	D: .	E: .
CCOc1cc(/C=C2/C(=N)N3C(=NC2=O)SN=C3S(C)(=O)=O)ccc1OS(=O)(=O)c1ccccc1
  A: -5%	B: ?	C: -8%	D: 19%	E: 21µM*
Cc1cc(N2CCN(C(=O)/C=C/C(=O)O)CC2)c2ccccc2n1
  A: -2%	B: 1%	C: .	D: -1%	E: -2%
Cc1cc(N2CCN(C(=O)Oc3ccc([N+](=O)[O-])cc3)CC2)c2ccccc2n1
  A: .	B: ?	C: .	D: .	E: 18µM*
COc1ccc(N2CCN(C(=O)c3ccc(COc4ccc([N+](=O)[O-])cc4)o3)CC2)cc1
  A: 22%	B: 10µM*	C: 9%	D: -14%	E: 10µM*
COc1ccc(N2CCN(C(=O)c3cc(=O)c4cc(C)cc(C)c4o3)CC2)cc1
  A: 0%	B: 13µM*	C: .	D: -1%	E: ?
COc1ccc(N2CCN(C(=O)Oc3ccc([N+](=O)[O-])cc3)CC2)cc1
  A: .	B: ?	C: .	D: .	E: 26µM*

Part of the list above in a different format:
> Cc1cc(N2CCN(C(=O)/C=C/C(=O)O)CC2)c2ccccc2n1
- miR-21 reporter: -2%
- DT40 TDP1 CPT: 1%
- TDP1 inh: .
- uPA generation: -1%
- DT40 TDP1 no CPT: -2%

> COc1ccc(N2CCN(C(=O)Oc3ccc([N+](=O)[O-])cc3)CC2)cc1
- miR-21 reporter: .
- DT40 TDP1 CPT: ?
- TDP1 inh: .
- uPA generation: .
- DT40 TDP1 no CPT: 26µM*

Later entries:
Screens by letter: A = miR-21 reporter; B = DT40 TDP1 CPT; C = TDP1 inh; D = uPA generation; E = DT40 TDP1 no CPT
CCN(Cc1ccccc1)C(=O)COC(=O)CNS(=O)(=O)c1ccc(C)cc1
  A: -4%	B: 3%	C: 2%	D: -3%	E: -25%
CCOC(=O)COn1c(=O)c[n+]([O-])c2ccccc21
  A: -4%	B: -10%	C: 11%	D: -3%	E: -22%
CCN1CCN(c2nnc(-n3cccc3C(=O)NCc3ccccc3OC)s2)CC1
  A: -9%	B: 16µM*	C: 0%	D: .	E: ?
CCCN1CCN(c2nnc(-n3cccc3C(=O)Nc3ccccc3C(F)(F)F)s2)CC1
  A: -24%	B: 21µM*	C: 5%	D: .	E: 21µM*
COc1ccccc1CNC(=O)c1cccn1-c1nnc(N2CCCC2)s1
  A: -15%	B: ?	C: -5%	D: .	E: ?
CCOC(=O)CSC1=C(C#N)C(=O)NC(c2ccc(OC)c(OC)c2)S1 (centres undefined)
  A: -4%	B: 16µM*	C: 7%	D: -5%	E: 12µM*
